Experimental data taken from patent US20240398973A1, “ENGINEERED ANTIBODY COMPOUNDS AND CONJUGATES THEREOF” (Eli Lilly and Company, priority 2017, published 2024).

Tests used:
human primary PMNs = assay: PMN reactive oxygen species (ROS) production, luminol-amplified chemiluminescence; type: cell-based; settings: for PMN ROS production: relative to 1000 nM fMLF
Description: (§1) Production of ROS by human primary PMNs is measured using luminol-amplified chemiluminescence. Following isolation, PMNs are suspended at 1×10^6 cells/ml in HBSS containing calcium and magnesium (Gibco #14025-092) supplemented with 0.25% human serum albumin (Gemini Bio producst #800-124) and 50 uM Luminol (SigmaAldrich #123072-2.5G). 100 μl of cell suspension (1×10^5 total cells) is then distributed into each well of a 96-well plate suitable for fluorescence measurement (Greiner #655098) and temperature equilibrated to 37° C. for 5 minutes. Following equilibration, 10× solution of antibody conjugate is applied to the wells, achieving a 1× final concentration.
(§2) Immediately after the addition of antibody conjugate, chemiluminescence signal is recorded in a luminometer maintained at 37° C. with 0.01 seconds dwell time per well, 20 seconds total time between sequential plate readings and 45 minutes total run time (PerkinElmer EnVision Multilabel Plate Reader).

[1] = test system: Mouse neutrophils purified from marrow; assay: Mouse PMN ROS production; type: cell-based; settings: relative to 10000 nM fMLF, AUC 5 minutes (Table 8c)
Description: as §1, §2
Mouse neutrophils purified from marrow were exposed to formyl peptides or antibody conjugates and ROS production was measured using luminol amplified chemiluminescence essentially as described above.

For “TMab-G1-UC-HC-124C-378C: unconjugated trastuzumab-variable-region IgG1 with HC 124C and 378C; HC SEQ ID NO:6, LC SEQ ID NO:7”, the “PMN ROS production” value (human primary PMNs; 1 nM, AUC 5 minutes (Tables 9, 11)) was 10.4 percentage, the “PMN ROS production” value (human primary PMNs; 3 nM, AUC 5 minutes (Tables 9, 11)) was 10.5 percentage and the “PMN ROS production” value (human primary PMNs; 10 nM, AUC 5 minutes (Tables 9, 11)) was 10.8 percentage. For the same substance, the “PMN ROS production” value (human primary PMNs; 30 nM, AUC 5 minutes (Tables 9, 11)) was 10.6 percentage, the “PMN ROS production” value (human primary PMNs; 100 nM, AUC 5 minutes (Tables 9, 11)) was 10.5 percentage and the “PMN ROS production, Exposure: Buffer” value (human primary PMNs; 300 nM, Buffer, relative to fMLF, AUC 5 minutes (Table 12a)) was 18.1 percentage. For the same substance, the “PMN ROS production, Exposure: Cyclosporin H” value (human primary PMNs; 300 nM, PMNs pre-incubated with 1 uM Cyclosporin H for 30 minutes, relative to fMLF (Table 12a)) was 18.2 percentage, the “PMN ROS production” value (human primary PMNs; 300 nM, AUC 5 minutes (Tables 9, 11)) was 10.6 percentage and the “PMN ROS production” value (human primary PMNs; 1000 nM, AUC 5 minutes (Tables 9, 11)) was 12.8 percentage. The “Mouse PMN ROS Production” value ([1]; 1 nM) was 15.8 percentage, the “Mouse PMN ROS Production” value ([1]; 3 nM) was 15.8 percentage and the “Mouse PMN ROS Production” value ([1]; 10 nM) was 14.7 percentage. For the same substance, the “Mouse PMN ROS Production” value ([1]; 30 nM) was 16.3 percentage, the “Mouse PMN ROS Production” value ([1]; 100 nM) was 16.4 percentage and the “Mouse PMN ROS Production” value ([1]; 300 nM) was 18.4 percentage. For the same substance, the “Mouse PMN ROS Production” value ([1]; 1000 nM) was 13.9 percentage.

In the case of “TMab: TMab (trastuzumab), parental anti-HER2 IgG1 antibody [reference compound]”, the “PMN ROS production” value (human primary PMNs; 1 nM, AUC 5 minutes (Table 12b)) was 13.6 percentage, the “PMN ROS production” value (human primary PMNs; 3 nM, AUC 5 minutes (Table 12b)) was 14.6 percentage and the “PMN ROS production” value (human primary PMNs; 10 nM, AUC 5 minutes (Table 12b)) was 13.3 percentage. The “PMN ROS production” value (human primary PMNs; 30 nM, AUC 5 minutes (Table 12b)) was 13.9 percentage, the “PMN ROS production” value (human primary PMNs; 100 nM, AUC 5 minutes (Table 12b)) was 18.7 percentage and the “PMN ROS production” value (human primary PMNs; 300 nM, AUC 5 minutes (Table 12b)) was 12.1 percentage. For the same substance, the “PMN ROS production” value (human primary PMNs; 1000 nM, AUC 5 minutes (Table 12b)) was 11.3 percentage.
